From US20160024487

Legend:
[1] = system: Lys(Dnp)-ATNATKMPRIVGG-Lys(Abz)
[2] = system: Lys(Dnp)-ATNATRQPRIVGG-Lys(Abz)
[3] = system: Lys(Dnp)-ATNATPPPRIVGG-Lys(Abz)
[4] = system: Lys(Dnp)-ATNATX4X3PRIVGG-Lys(Abz), X4 = H, X3 = G
[5] = system: Lys(Dnp)-ATNATX4X3PRIVGG-Lys(Abz), X4 = H, X3 = R
[6] = system: Lys(Dnp)-ATNATMIPRIVGG-Lys(Abz)
[7] = system: Lys(Dnp)-ATNATTQPRIVGG-Lys(Abz)
[8] = system: Lys(Dnp)-ATNATIEPRIVGG-Lys(Abz)
[9] = system: Lys(Dnp)-ATNATPNPRIVGG-Lys(Abz)
[10] = system: Lys(Dnp)-ATNATX4X3PRIVGG-Lys(Abz), X4 = Q, X3 = L
[11] = system: Lys(Dnp)-ATNATTAPRIVGG-Lys(Abz)
[12] = system: Lys(Dnp)-ATNATMVPRIVGG-Lys(Abz)
[13] = system: Lys(Dnp)-ATNATPIPRIVGG-Lys(Abz)
[14] = system: Lys(Dnp)-ATNATNDPRIVGG-Lys(Abz)
[15] = system: Lys(Dnp)-ATNATX4X3PRIVGG-Lys(Abz), X4 = T, X3 = G
[16] = system: Lys(Dnp)-ATNATLEPRIVGG-Lys(Abz)
[17] = system: Lys(Dnp)-ATNATX4X3PRIVGG-Lys(Abz), X4 = S, X3 = M
[18] = system: Lys(Dnp)-ATNATQTPRIVGG-Lys(Abz)
[19] = system: Lys(Dnp)-ATNATWPPRIVGG-Lys(Abz)
[20] = system: Lys(Dnp)-ATNATEWPRIVGG-Lys(Abz)
[21] = system: Lys(Dnp)-ATNATFQPRIVGG-Lys(Abz)
[22] = system: Lys(Dnp)-ATNATEHPRIVGG-Lys(Abz)
[23] = system: Lys(Dnp)-ATNATKDPRIVGG-Lys(Abz)
[24] = system: Lys(Dnp)-ATNATQPPRIVGG-Lys(Abz)
[25] = system: Lys(Dnp)-ATNATWWPRIVGG-Lys(Abz)
[26] = system: Lys(Dnp)-ATNATLPPRIVGG-Lys(Abz)
[27] = system: Lys(Dnp)-ATNATNPPRIVGG-Lys(Abz)
[28] = system: Lys(Dnp)-ATNATHYPRIVGG-Lys(Abz)
[29] = system: Lys(Dnp)-ATNATQIPRIVGG-Lys(Abz)
[30] = system: Lys(Dnp)-ATNATWMPRIVGG-Lys(Abz)
[31] = system: Lys(Dnp)-ATNATYIPRIVGG-Lys(Abz)
[32] = system: Lys(Dnp)-ATNATX4X3PRIVGG-Lys(Abz), X4 = S, X3 = H
[33] = system: Lys(Dnp)-ATNATIWPRIVGG-Lys(Abz)
[34] = system: Lys(Dnp)-ATNATIAPRIVGG-Lys(Abz)
[35] = system: Lys(Dnp)-ATNATPYPRIVGG-Lys(Abz)
[36] = system: Lys(Dnp)-ATNATFRPRIVGG-Lys(Abz)
[37] = system: Lys(Dnp)-ATNATWTPRIVGG-Lys(Abz)
[38] = system: Lys(Dnp)-ATNATFWPRIVGG-Lys(Abz)
[39] = system: Lys(Dnp)-ATNATTYPRIVGG-Lys(Abz)
[40] = system: Lys(Dnp)-ATNATMRPRIVGG-Lys(Abz)
[41] = system: Lys(Dnp)-ATNATX4X3PRIVGG-Lys(Abz), X4 = N, X3 = Q
[42] = system: Lys(Dnp)-ATNATKPPRIVGG-Lys(Abz)

Substance: Human plasma purified alpha-thrombin
- FIIa kcat/KM [1]: 800 M⁻¹ s⁻¹
- Specificity Ratio (FIIa/FXa) [1]: 6

Substance: Human plasma purified α-thrombin
- FIIa kcat/KM [2]: 640 M⁻¹ s⁻¹
- Functional Selectivity (Specificity*FIIa kcat/KM) [2]: 91
- Specificity Ratio (FIIa/FXa) [2]: 0
- kcat/KM [2]: 640 M⁻¹ s⁻¹
- kcat/KM [3]: 850 M⁻¹ s⁻¹
- FIIa kcat/KM [4]: 1000 M⁻¹ s⁻¹
- Specificity Ratio (FIIa/FXa) [4]: 22
- FIIa kcat/KM [5]: 2200 M⁻¹ s⁻¹
- Specificity Ratio (FIIa/FXa) [5]: 15
- FIIa kcat/KM [6]: 18000 M⁻¹ s⁻¹
- Functional Selectivity (Specificity*FIIa kcat/KM) [6]: 1.4e+06
- kcat/KM [6]: 18000 M⁻¹ s⁻¹
- FIIa kcat/KM [7]: 1400 M⁻¹ s⁻¹
- Specificity Ratio (FIIa/FXa) [7]: 82
- kcat/KM [7]: 1400 M⁻¹ s⁻¹
- FIIa kcat/KM [8]: 12000 M⁻¹ s⁻¹
- Specificity Ratio (FIIa/FXa) [8]: 9
- kcat/KM [8]: 12000 M⁻¹ s⁻¹
- kcat/KM [9]: 6700 M⁻¹ s⁻¹
- FIIa kcat/KM [10]: 3500 M⁻¹ s⁻¹
- Specificity Ratio (FIIa/FXa) [10]: 7
- kcat/KM [11]: 630 M⁻¹ s⁻¹
- FIIa kcat/KM [12]: 17000 M⁻¹ s⁻¹
- Functional Selectivity (Specificity*FIIa kcat/KM) [12]: 2.8e+06
- kcat/KM [12]: 17000 M⁻¹ s⁻¹
- FIIa kcat/KM [13]: 18000 M⁻¹ s⁻¹
- Specificity Ratio (FIIa/FXa) [13]: 30
- kcat/KM [13]: 18000 M⁻¹ s⁻¹
- FIIa kcat/KM [14]: 3 M⁻¹ s⁻¹
- Functional Selectivity (Specificity*FIIa kcat/KM) [14]: 0.3
- Specificity Ratio (FIIa/FXa) [14]: 0
- FIIa kcat/KM [15]: 770 M⁻¹ s⁻¹
- Specificity Ratio (FIIa/FXa) [15]: 37
- FIIa kcat/KM [16]: 14000 M⁻¹ s⁻¹
- Specificity Ratio (FIIa/FXa) [16]: 20
- kcat/KM [16]: 14000 M⁻¹ s⁻¹
- FIIa kcat/KM [17]: 960 M⁻¹ s⁻¹
- Specificity Ratio (FIIa/FXa) [17]: 21
- kcat/KM [18]: 7400 M⁻¹ s⁻¹
- Functional Selectivity (Specificity*FIIa kcat/KM) [19]: 5.6e+06
- kcat/KM [20]: 390 M⁻¹ s⁻¹
- Functional Selectivity (Specificity*FIIa kcat/KM) [21]: 3.5e+06
- kcat/KM [22]: 690 M⁻¹ s⁻¹
- kcat/KM [23]: 1600 M⁻¹ s⁻¹
- FIIa kcat/KM [24]: 0 M⁻¹ s⁻¹
- Functional Selectivity (Specificity*FIIa kcat/KM) [24]: 0
- Specificity Ratio (FIIa/FXa) [24]: 0
- FIIa kcat/KM [25]: 3800 M⁻¹ s⁻¹
- Specificity Ratio (FIIa/FXa) [25]: 54
- kcat/KM [25]: 3800 M⁻¹ s⁻¹
- FIIa kcat/KM [26]: 11 M⁻¹ s⁻¹
- Functional Selectivity (Specificity*FIIa kcat/KM) [26]: 75
- Specificity Ratio (FIIa/FXa) [26]: 7
- kcat/KM [26]: 11 M⁻¹ s⁻¹
- FIIa kcat/KM [27]: 9 M⁻¹ s⁻¹
- Functional Selectivity (Specificity*FIIa kcat/KM) [27]: 27
- Specificity Ratio (FIIa/FXa) [27]: 3
- kcat/KM [28]: 1300 M⁻¹ s⁻¹
- FIIa kcat/KM [29]: 7900 M⁻¹ s⁻¹
- Specificity Ratio (FIIa/FXa) [29]: 13
- kcat/KM [29]: 7900 M⁻¹ s⁻¹
- FIIa kcat/KM [30]: 7200 M⁻¹ s⁻¹
- Specificity Ratio (FIIa/FXa) [30]: 37
- kcat/KM [30]: 7200 M⁻¹ s⁻¹
- kcat/KM [31]: 2100 M⁻¹ s⁻¹
- FIIa kcat/KM [32]: 1100 M⁻¹ s⁻¹
- Specificity Ratio (FIIa/FXa) [32]: 44
- FIIa kcat/KM [33]: 33000 M⁻¹ s⁻¹
- Functional Selectivity (Specificity*FIIa kcat/KM) [33]: 720000
- kcat/KM [33]: 33000 M⁻¹ s⁻¹
- FIIa kcat/KM [34]: 8700 M⁻¹ s⁻¹
- Specificity Ratio (FIIa/FXa) [34]: 14
- kcat/KM [34]: 8700 M⁻¹ s⁻¹
- FIIa kcat/KM [35]: 14000 M⁻¹ s⁻¹
- Functional Selectivity (Specificity*FIIa kcat/KM) [35]: 2.3e+06
- kcat/KM [35]: 14000 M⁻¹ s⁻¹
- FIIa kcat/KM [36]: 43000 M⁻¹ s⁻¹
- Functional Selectivity (Specificity*FIIa kcat/KM) [36]: 4.4e+06
- kcat/KM [36]: 43000 M⁻¹ s⁻¹
- FIIa kcat/KM [37]: 16000 M⁻¹ s⁻¹
- Functional Selectivity (Specificity*FIIa kcat/KM) [37]: 5.8e+06
- kcat/KM [37]: 16000 M⁻¹ s⁻¹
- Functional Selectivity (Specificity*FIIa kcat/KM) [38]: 1.1e+06
- FIIa kcat/KM [39]: 1400 M⁻¹ s⁻¹
- Specificity Ratio (FIIa/FXa) [39]: 60
- kcat/KM [39]: 1400 M⁻¹ s⁻¹
- FIIa kcat/KM [40]: 35000 M⁻¹ s⁻¹
- Functional Selectivity (Specificity*FIIa kcat/KM) [40]: 2.4e+06
- kcat/KM [40]: 35000 M⁻¹ s⁻¹
- FIIa kcat/KM [41]: 740 M⁻¹ s⁻¹
- Specificity Ratio (FIIa/FXa) [41]: 28
- FIIa kcat/KM [42]: 0.00056 M⁻¹ s⁻¹
- Functional Selectivity (Specificity*FIIa kcat/KM) [42]: 3.6e-08
- Specificity Ratio (FIIa/FXa) [42]: 0
- kcat/KM [42]: 0.00056 M⁻¹ s⁻¹
